According to US20090208455A1, “Method for Treating Polyglutamine Expansion Neurodegenerative Diseases” (INSERM (Institut National de la Sante et de la Recherche …, priority 2006, published 2009):
“Also recorded” adds a separate entry of the source.

How the values were obtained:
Type in all cases: cell-based
[1] = tested on: PML; experiment: β-INF induction of PML expression and PML bodies in COS-7 cells (immunofluorescence, RT-PCR, Western blot); details: 2000 UI/ml
Description: RNA preparation and semi-quantitative RT-PCR: RNA was extracted from whole cell lysates of transfected or untransfected COS-7 cells, using the RNAeasy kit (Quiagen), and cDNAs were synthesized (ThermoScript RT-PCR System, Invitrogen) according to the manufacturers' instructions. PCR was performed using primers specific for the genes of interest. Primers used for specific detection of PML IV were located in exon 8, and the reverse primer was designed to anneal only PML IV mRNAs. The cyclophilin A gene was used as the reference.
(§1) Cell culture, transfections, MG132, INF and cadmium treatments: COS-7 cells were maintained in DMEM (Invitrogen) supplemented with 5% FBS, and penicillin-streptomycin (100 UI/ml; 100 μg/ml). Cell lines were transfected with Lipofectamine-PLUS reagents (Invitrogen) as prescribed. Unless otherwise specified, cells were harvested or analyzed by immunofluorescence 40-45 h post-transfection. β-INF. Recombinant human Interferon beta (Hu-IFN-b) is obtained from human fibroblast mRNA expressed in E. Coli. Its molecular weight is approximately 20 kDa. Recombinant human Interferon beta was supplied as a solution at 1×10^6 units/ml in PBS (phosphate buffered saline) containing 0.1% BSA (bovine serum albumin) and 10% glycerol. It was purchased from Sigma-Aldrich. Recombinant human Interferon beta (2000 UI/ml) was added to the culture medium after plating and during transfection. Cadmium chloride (Cadmium chloride hemi pentahydrate, Sigma Aldrich) (from 0.25 μM to 2 μM) was added during transfection. For proteasome inhibition, 5 μM MG132 was applied for 12 h, 25 h post-transfection. Cultures of post-mitotic neurons were prepared from the cortex of embryonic day 16 Wistar rats. Cells were extracted from the embryos and cultured with 1 μM MK801. Glial cell proliferation was stopped by adding 1 μM cytosine arabinoside after 3 h. Primary cultures of cortical neurons were transfected 96 h after plating using Lipofectamine 2000 reagent (Invitrogen) according to the manufacturer's instructions.
(§2) Western blot and filter retardation assay: Cells were harvested in PBS, pelleted and lysed 30 min on ice in lysis buffer containing 50 mM Tris pH 8.8, 100 mM NaCl, 5 mM MgCl2, 0.5% NP40, 1 mM EDTA and 250 UI/ml benzonase (Merck) supplemented with a cocktail of protease inhibitors (Complete and Pefabloc, Roche). Total extracts were centrifuged at 13000 rpm for 10 min at 4° C. to separate soluble proteins from aggregates and membranes. Supernatants (30 μg protein) were analyzed by Western blot. Pellets were washed with PBS and further incubated 30 min on ice in a pellet buffer containing 20 mM Tris pH 8.0, 15 mM MgCl2 and 250 UI/ml benzonase. Protein concentrations (supernatant and pellet) were determined by Bio-Rad assay. […]

[2] = tested on: ATXN7; experiment: Western blot of ATXN7 levels in β-INF-treated COS-7 cells; details: 2000 UI/ml
Description: as §1
as §2, with “Pellets were washed with PBS and further incubated 30 min on ice in a pellet buffer containing 20 mM Tris pH 8.0, 15 mM MgCl2 and 250 UI/ml benzonase.” left out

[3] = tested on: mutant ATXN7 aggregates; experiment: Filter retardation assay of SDS-insoluble material in COS-7 cells; details: β-INF-treated COS-7 cells
Description: Cell culture, transfections, MG132, INF and cadmium treatments: COS-7 cells were maintained in DMEM (Invitrogen) supplemented with 5% FBS, and penicillin-streptomycin (100 UI/ml; 100 μg/ml). Cell lines were transfected with Lipofectamine-PLUS reagents (Invitrogen) as prescribed. […] Recombinant human Interferon beta (Hu-IFN-b) is obtained from human fibroblast mRNA expressed in E. Coli. Its molecular weight is approximately 20 kDa. Recombinant human Interferon beta was supplied as a solution at 1×10^6 units/ml in PBS (phosphate buffered saline) containing 0.1% BSA (bovine serum albumin) and 10% glycerol. It was purchased from Sigma-Aldrich. Recombinant human Interferon beta (2000 UI/ml) was added to the culture medium after plating and during transfection. Cadmium chloride (Cadmium chloride hemi pentahydrate, Sigma Aldrich) (from 0.25 μM to 2 μM) was added during transfection. […]
Western blot and filter retardation assay: Cells were harvested in PBS, pelleted and lysed 30 min on ice in lysis buffer containing 50 mM Tris pH 8.8, 100 mM NaCl, 5 mM MgCl2, 0.5% NP40, 1 mM EDTA and 250 UI/ml benzonase (Merck) supplemented with a cocktail of protease inhibitors (Complete and Pefabloc, Roche). […] Supernatants (30 μg protein) were analyzed by Western blot. […] Protein concentrations (supernatant and pellet) were determined by Bio-Rad assay. […]

Substance: β-INF: Recombinant human Interferon beta obtained from human fibroblast mRNA expressed in E. Coli, approximately 20 kDa, purchased from Sigma-Aldrich
- PML bodies in cells expressing mutant ATXN7 ([1]; COS-7 cells, immunofluorescence): formation of large strongly immunoreactive PML bodies that colocalized with mutant ATXN7
- levels of PML isoforms ([1]; Western blot, COS-7 cells expressing endogenous ATXN7, FL-10Q or FL-74Q): increased the levels of several PML isoforms; also recorded: induces the expression of multiple isoforms of PML
- size and number of PML bodies ([1]; non-transfected COS-7 cells, immunofluorescence): increased the size and number of PML bodies
- expression of endogenous PML IV mRNA ([1]; semi-quantitative RT-PCR with PML IV specific primers, COS-7 cells): induced; also recorded: increases
- amount of overexpressed soluble mutant ATXN7 FL-74Q [2]: decreases
- amount of overexpressed soluble wild-type ATXN7 FL-10Q [2]: decreases
- level of endogenous wild type ATXN7 [2]: no effect; also recorded: does not affect
- insoluble PML-containing material [3]: detected; also recorded: appears
- insoluble mutant ATXN7 (aggregates) ([3]; 2000 UI/ml): disappear
